Measured values reported in ChEMBL document CHEMBL3877301 (J Med Chem, 2016).

Molecular target: Adenosine receptor A2a (Homo sapiens, UniProt P29274)
Details: CHO

Row | SMILES | KiL [nM]
1 | COc1ccccc1CNc1nc(N)c2nc(-c3ccco3)sc2n1 | 7.16
2 | COc1cccc(CNc2nc(N)c3nc(-c4ccco4)sc3n2)c1 | 23
